# Data from ChEMBL document CHEMBL3286334.
# Amino acid sequences for entries named in this document (tags omitted).
# UniProt P32245, whole entry C271Y: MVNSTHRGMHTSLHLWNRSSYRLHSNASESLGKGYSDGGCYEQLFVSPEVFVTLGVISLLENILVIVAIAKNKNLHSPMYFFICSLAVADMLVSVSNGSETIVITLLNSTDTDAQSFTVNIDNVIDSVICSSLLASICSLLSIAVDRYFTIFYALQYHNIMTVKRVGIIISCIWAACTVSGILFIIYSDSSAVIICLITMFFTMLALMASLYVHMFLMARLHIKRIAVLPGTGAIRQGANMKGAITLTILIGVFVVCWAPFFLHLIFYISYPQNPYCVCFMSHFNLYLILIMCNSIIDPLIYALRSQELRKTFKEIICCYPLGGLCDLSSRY
# Biological target: Melanocortin receptor 4 (Homo sapiens, UniProt P32245, C271Y)
# Assay: Agonist activity at human melanocortin-4 receptor C271Y mutant expressed in HEK293 cells co-transfected with CRE/beta-galactosidase reporter gene assessed as stimulatory response after 6 hrs
# Assay type: functional, cell-based
smiles,measurement,value
CC(=O)N[C@@H](Cc1cnc[nH]1)C(=O)N[C@H](Cc1ccccc1)C(=O)N[C@@H](CCCN=C(N)N)C(=O)N[C@@H](Cc1c[nH]c2ccccc12)C(N)=O,EC50,1200 nM
